# Results taken from PubChem BioAssay AID488899 (Broad Institute, 2010).
# This is a selection; strong and weak results do not stand in their true shares. Calls of active or inactive are those of the source.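 Rule for the calls: active = mean inhibition across replicates of 60% or more, whatever share of single replicates reaches that level; inconclusive = some that reach 60%, reason not given; inactive = mean inhibition across replicates below 60%.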
# Test: inhibitors of MITF-dependent TRPM1 promoter reporter, primary screen, cell-based, SK-MEL-5, single point, luciferase (AID 488899)
# Conditions: SK-MEL-5 TRPM1 promoter luciferase, 24 h; at 12.5 µM; hits give high values
row,Compound,inhibition
1,CCC(=O)N(c1ccccc1)C1(COC)CCN(CCn2nnn(CC)c2=O)CC1,inactive: 3.45%
2,CCC(=O)N(c1ccccc1)C1(COC)CCN(CCc2cccs2)CC1,inactive: -2.16%
